Data reported in PubChem BioAssay AID1347076 (National Center for Advancing Translational Sciences (NCATS), 2019).
This is a selection; strong and weak results do not stand in their true shares. Records with an inconclusive call do not appear. Some salts and complexes are drawn in separate pieces, as the source files them; their charges need not balance. Activity calls are given as the source filed them. The call rests on the fitted dose curve; in most records, active means well fitted cell-killing curve with a large enough effect; inconclusive means small, poorly fitted or top-dose-only effect, or effect the other way; inactive means flat fitted curve, though single readings scatter.
On the % scale 0 is the no-effect control and ±100 the full control effect.

Assay: qHTS assay for MDR1-selective chemotherapeutics: Primary screen using the drug-selected MDR subline cells KB-V1; further: nearly all actives have a fitted effect of over 60% in size
Details: KB-V1 MDR cells viability, CellTiter-Glo, 72 h; at 46.1 µM (top of the series)
Summary of the method: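 Luminescent ATP read-out (CellTiter-Glo, 10 min) measures survival of drug-selected KB-V1 MDR cells after 72 h, 37 degrees C compound exposure. Medium: phenol-red-free DMEM, 10% FBS. Values from fitted concentration-response curves.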
In the case of CCN(CC)CCCNc1ccccc1[N+](=O)[O-].O=[N+]([O-])c1cc([N+](=O)[O-])c(O)c([N+](=O)[O-])c1, the activity change, negative = cytotoxicity is reported as inactive: -5.62%. With CN1CCC(Nc2cccc(F)c2)CC1 the activity change, negative = cytotoxicity was inactive: -15.7%. With COc1ccc2c(c1O)-c1c(O)c(OC)cc3c1[C@H](C2)[N+](C)(C)CC3.O=[N+]([O-])c1cc([N+](=O)[O-])c([O-])c([N+](=O)[O-])c1[O-] the activity change, negative = cytotoxicity was inactive: -10.8%. In the case of O=C(OC1CN2CCC1CC2)c1ccc([N+](=O)[O-])cc1 (centres undefined), the activity change, negative = cytotoxicity is reported as inactive: -0.288%. In the case of Cc1ccc(C(=O)NCC2(N(C)C)CCCCC2)o1, the activity change, negative = cytotoxicity is reported as inactive: -29.6%. With CCCOc1ccc(C(=O)NCC2(N(C)C)CCCCC2)cc1OC the activity change, negative = cytotoxicity was inactive: 14.9%. In the case of COc1ccc(C(c2nnnn2C2CCCC2)N2CCC(n3c(=O)[nH]c4ccccc43)CC2)cc1 (centres undefined), the activity change, negative = cytotoxicity is reported as inactive: -19.8%. In the case of O=C(NCC1(N2CCCCC2)CCCCC1)c1cccs1, the activity change, negative = cytotoxicity is reported as inactive: -13.5%. With CCCCn1nnnc1C(CC)N1CCC(n2c(=O)[nH]c3ccccc32)CC1 (centres undefined) the activity change, negative = cytotoxicity was inactive: 11.5%. In the case of COc1ccc(C(=O)NCC2(N3CCCCC3)CCCCC2)cc1, the activity change, negative = cytotoxicity is reported as inactive: -25.3%. With CC(C)(C)OC(=O)N1CCC(N(C(=O)c2ccccc2)c2ccc(F)cc2)CC1 the activity change, negative = cytotoxicity was inactive: 28.1%. For COc1ccc(C(=O)NCC2(N3CCCCC3)CCCCC2)c(OC)c1OC, the activity change, negative = cytotoxicity was inactive: -17.7%. In the case of CCC(c1nnnn1C1CCCC1)N1CCC(n2c(=O)[nH]c3ccccc32)CC1 (centres undefined), the activity change, negative = cytotoxicity is reported as inactive: 5.77%. With CSc1ccccc1C(=O)NCC1(N2CCCCC2)CCCCC1 the activity change, negative = cytotoxicity was inactive: -0.147%. With O=C(NCC1(N2CCOCC2)CCCCC1)c1cc2ccccc2o1 the activity change, negative = cytotoxicity was inactive: -6.24%. In the case of O=C(NCC1(N2CCCCC2)CCCCC1)c1ccc(Cl)nc1, the activity change, negative = cytotoxicity is reported as inactive: -10.9%. With Cc1cc(C)cc(N(C(=O)c2ccccc2)C2CCN(C(=O)OC(C)(C)C)CC2)c1 the activity change, negative = cytotoxicity was inactive: -0.263%. In the case of CCOC(=O)N1CCC(Nc2ccc(OC)cc2)CC1, the activity change, negative = cytotoxicity is reported as inactive: -6.55%. In the case of CCCCn1nnnc1C(c1ccc(OC)cc1)N1CCC(n2c(=O)[nH]c3ccccc32)CC1 (centres undefined), the activity change, negative = cytotoxicity is reported as inactive: -1.03%. With O=C(NCC1(N2CCCCC2)CCCCC1)c1ccc(Cl)s1 the activity change, negative = cytotoxicity was inactive: -21.4%. For N#CC1(Nc2ccccc2)CCN(Cc2ccccc2)CC1, the activity change, negative = cytotoxicity was inactive: 10%. With O=C1C(O)=C([N+](=O)[O-])C(=O)C(O)=C1[N+](=O)[O-] the activity change, negative = cytotoxicity was inactive: 7.88%. In the case of CCOc1ccc(C)cc1CN(CCCl)CCCl, the activity change, negative = cytotoxicity is reported as inactive: 6.92%. For O=C(NCC1(N2CCOCC2)CCCCC1)c1ccc(Cl)cc1, the activity change, negative = cytotoxicity was inactive: -29.3%. With CC(C)(C)n1nnnc1C(c1ccccc1)N1CCC(n2c(=O)[nH]c3ccccc32)CC1 (centres undefined) the activity change, negative = cytotoxicity was inactive: 11.9%. For O=C1CCN(Cc2ccccc2)CC1, the activity change, negative = cytotoxicity was inactive: 15.2%. In the case of O=P1(N(CCCl)CCCl)SCCCS1, the activity change, negative = cytotoxicity is reported as inactive: 14.3%. In the case of CCCCOc1ccc(C(=O)NCC2(N3CCOCC3)CCCCC2)cc1, the activity change, negative = cytotoxicity is reported as inactive: 4.5%. In the case of O=C(NCC1(N2CCCCC2)CCCCC1)c1ccc(F)cc1, the activity change, negative = cytotoxicity is reported as inactive: 11.3%. In the case of COc1ccc(NC2CCN(CCc3ccccc3)CC2)c(OC)c1, the activity change, negative = cytotoxicity is reported as inactive: -9.23%. For CCOC(=O)N1CCC(Nc2ccc(F)cc2)CC1, the activity change, negative = cytotoxicity was inactive: -4.82%. In the case of O=c1[nH]c2ccccc2n1C1CCN(C(c2ccccc2)c2nnnn2C2CCCCC2)CC1 (centres undefined), the activity change, negative = cytotoxicity is reported as inactive: -15.2%. In the case of CCOC(=O)N1CCC(Nc2cccc(C)c2)CC1, the activity change, negative = cytotoxicity is reported as inactive: 3.01%. In the case of COc1cc(C(=O)NCC2(N(C)C)CCCCC2)ccc1OC(F)F, the activity change, negative = cytotoxicity is reported as inactive: 0%.
